# Data from paper PMC12142581.
# Sequences of proteins named here, by UniProt entry; tags and fusion partners are left off. A change or cut given only in a name is not applied to a line headed by its entry. A line that says so, or that is headed by a name, gives the form on record, which may keep a tag or linker.
# UniProt P08173, whole entry, looked up: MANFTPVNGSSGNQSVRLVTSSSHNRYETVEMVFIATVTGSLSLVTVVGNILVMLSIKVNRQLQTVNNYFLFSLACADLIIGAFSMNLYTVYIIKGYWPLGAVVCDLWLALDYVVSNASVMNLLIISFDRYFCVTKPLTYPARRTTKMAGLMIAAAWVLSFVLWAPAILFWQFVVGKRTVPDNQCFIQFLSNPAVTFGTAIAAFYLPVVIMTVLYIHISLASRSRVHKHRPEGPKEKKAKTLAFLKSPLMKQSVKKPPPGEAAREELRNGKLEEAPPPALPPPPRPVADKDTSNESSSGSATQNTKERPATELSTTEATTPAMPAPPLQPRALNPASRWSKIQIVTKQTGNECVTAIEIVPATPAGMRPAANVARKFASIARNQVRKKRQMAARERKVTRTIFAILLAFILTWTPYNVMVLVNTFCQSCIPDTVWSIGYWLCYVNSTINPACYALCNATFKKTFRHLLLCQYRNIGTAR
# UniProt P41595, whole entry, looked up: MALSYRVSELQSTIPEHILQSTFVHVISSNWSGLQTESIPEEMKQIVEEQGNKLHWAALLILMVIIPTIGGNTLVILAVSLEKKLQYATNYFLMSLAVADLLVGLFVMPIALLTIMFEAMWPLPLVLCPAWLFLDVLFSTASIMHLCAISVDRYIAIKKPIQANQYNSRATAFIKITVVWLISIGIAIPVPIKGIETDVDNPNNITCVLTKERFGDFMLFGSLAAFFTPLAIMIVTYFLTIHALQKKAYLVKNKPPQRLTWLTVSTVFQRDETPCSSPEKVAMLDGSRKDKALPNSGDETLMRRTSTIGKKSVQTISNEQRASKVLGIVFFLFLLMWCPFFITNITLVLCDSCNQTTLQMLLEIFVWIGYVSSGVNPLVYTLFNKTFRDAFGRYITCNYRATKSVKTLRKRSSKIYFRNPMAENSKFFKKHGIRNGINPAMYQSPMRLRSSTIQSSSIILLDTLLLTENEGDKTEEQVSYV
# UniProt P49146, whole entry, looked up: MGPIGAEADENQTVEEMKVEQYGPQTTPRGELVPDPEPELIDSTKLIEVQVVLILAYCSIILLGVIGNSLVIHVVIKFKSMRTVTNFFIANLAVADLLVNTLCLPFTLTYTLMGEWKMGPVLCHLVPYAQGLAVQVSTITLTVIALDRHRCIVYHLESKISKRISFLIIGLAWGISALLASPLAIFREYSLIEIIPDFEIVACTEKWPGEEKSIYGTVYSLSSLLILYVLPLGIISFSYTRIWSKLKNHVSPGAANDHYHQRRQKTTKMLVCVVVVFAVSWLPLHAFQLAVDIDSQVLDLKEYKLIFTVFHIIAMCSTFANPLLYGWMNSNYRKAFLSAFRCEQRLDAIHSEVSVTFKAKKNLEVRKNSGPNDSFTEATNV
# UniProt P11229: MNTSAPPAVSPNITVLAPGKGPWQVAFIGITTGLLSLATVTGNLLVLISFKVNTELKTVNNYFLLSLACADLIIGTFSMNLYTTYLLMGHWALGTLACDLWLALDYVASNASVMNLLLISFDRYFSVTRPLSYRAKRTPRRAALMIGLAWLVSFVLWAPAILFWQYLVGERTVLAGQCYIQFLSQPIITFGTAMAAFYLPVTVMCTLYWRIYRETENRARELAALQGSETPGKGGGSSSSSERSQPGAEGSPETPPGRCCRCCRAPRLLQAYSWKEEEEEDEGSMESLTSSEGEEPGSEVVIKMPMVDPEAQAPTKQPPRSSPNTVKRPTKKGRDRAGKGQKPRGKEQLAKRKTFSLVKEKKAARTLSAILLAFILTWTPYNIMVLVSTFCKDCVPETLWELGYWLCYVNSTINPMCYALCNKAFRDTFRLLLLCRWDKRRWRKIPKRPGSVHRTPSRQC
# UniProt P25103, whole entry, looked up: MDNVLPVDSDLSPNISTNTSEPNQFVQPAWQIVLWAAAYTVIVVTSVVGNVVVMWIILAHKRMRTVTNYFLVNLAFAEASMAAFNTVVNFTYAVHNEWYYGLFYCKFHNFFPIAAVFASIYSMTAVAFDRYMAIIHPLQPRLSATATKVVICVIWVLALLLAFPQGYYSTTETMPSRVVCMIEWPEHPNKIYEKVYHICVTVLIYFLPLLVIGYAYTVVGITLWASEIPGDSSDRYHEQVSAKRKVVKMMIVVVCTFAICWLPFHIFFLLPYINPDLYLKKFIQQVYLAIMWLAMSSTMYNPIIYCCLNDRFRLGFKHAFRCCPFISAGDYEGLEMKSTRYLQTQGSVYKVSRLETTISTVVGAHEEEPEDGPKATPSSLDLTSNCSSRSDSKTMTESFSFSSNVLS
# UniProt P25100, whole entry, looked up: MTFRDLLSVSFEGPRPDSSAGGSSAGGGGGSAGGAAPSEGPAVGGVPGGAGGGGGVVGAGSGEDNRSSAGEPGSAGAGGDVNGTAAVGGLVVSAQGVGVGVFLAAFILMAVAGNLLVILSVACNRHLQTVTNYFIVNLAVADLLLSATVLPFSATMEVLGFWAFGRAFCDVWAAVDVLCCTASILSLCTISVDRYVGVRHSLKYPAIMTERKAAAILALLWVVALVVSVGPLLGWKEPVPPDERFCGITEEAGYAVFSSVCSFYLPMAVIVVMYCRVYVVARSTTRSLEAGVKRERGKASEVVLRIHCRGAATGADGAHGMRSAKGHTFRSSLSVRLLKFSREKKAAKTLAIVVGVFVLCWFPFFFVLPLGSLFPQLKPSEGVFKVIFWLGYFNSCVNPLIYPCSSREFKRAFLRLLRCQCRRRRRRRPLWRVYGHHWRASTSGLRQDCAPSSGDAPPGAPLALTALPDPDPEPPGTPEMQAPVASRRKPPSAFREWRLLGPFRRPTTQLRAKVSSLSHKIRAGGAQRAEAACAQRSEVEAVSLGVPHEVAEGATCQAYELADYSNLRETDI
# UniProt P08588, whole entry, looked up: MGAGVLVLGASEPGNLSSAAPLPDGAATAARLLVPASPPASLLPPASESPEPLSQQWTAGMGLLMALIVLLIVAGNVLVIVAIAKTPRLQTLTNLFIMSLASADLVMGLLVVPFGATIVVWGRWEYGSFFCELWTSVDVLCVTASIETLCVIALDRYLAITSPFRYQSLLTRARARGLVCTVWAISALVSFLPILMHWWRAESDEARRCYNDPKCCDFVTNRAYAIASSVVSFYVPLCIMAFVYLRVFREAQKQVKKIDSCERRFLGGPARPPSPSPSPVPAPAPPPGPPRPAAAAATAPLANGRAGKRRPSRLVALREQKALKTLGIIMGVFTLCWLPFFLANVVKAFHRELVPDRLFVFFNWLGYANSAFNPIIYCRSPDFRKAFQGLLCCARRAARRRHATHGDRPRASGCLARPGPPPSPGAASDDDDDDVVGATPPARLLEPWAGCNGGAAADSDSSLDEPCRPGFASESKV
# UniProt P03372, whole entry, looked up: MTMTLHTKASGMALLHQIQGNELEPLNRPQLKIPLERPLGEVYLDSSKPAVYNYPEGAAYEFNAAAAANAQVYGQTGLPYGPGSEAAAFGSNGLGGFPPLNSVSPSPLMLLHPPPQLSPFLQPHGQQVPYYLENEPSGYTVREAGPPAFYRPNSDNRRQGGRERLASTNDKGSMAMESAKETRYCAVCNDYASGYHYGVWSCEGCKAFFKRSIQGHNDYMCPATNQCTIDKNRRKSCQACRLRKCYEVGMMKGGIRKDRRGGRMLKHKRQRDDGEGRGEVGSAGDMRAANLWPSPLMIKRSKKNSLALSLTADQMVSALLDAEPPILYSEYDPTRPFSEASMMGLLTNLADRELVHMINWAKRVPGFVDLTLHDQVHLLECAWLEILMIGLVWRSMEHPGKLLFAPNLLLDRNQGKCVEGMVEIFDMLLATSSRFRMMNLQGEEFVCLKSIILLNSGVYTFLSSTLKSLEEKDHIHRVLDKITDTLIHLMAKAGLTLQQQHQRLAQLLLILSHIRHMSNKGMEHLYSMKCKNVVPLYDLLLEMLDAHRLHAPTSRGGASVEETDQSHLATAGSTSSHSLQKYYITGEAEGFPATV
# UniProt P35372, whole entry, looked up: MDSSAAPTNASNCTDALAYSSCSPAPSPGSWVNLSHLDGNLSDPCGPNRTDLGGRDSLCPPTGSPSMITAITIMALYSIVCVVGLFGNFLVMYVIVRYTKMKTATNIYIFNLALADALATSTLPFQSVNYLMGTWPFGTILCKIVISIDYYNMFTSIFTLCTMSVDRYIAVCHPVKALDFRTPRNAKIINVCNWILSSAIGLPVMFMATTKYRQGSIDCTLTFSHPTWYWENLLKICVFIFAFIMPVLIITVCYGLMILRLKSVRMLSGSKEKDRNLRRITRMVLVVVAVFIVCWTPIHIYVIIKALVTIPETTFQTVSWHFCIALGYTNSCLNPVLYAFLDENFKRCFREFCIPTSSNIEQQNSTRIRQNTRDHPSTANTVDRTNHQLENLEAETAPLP
# UniProt P02708: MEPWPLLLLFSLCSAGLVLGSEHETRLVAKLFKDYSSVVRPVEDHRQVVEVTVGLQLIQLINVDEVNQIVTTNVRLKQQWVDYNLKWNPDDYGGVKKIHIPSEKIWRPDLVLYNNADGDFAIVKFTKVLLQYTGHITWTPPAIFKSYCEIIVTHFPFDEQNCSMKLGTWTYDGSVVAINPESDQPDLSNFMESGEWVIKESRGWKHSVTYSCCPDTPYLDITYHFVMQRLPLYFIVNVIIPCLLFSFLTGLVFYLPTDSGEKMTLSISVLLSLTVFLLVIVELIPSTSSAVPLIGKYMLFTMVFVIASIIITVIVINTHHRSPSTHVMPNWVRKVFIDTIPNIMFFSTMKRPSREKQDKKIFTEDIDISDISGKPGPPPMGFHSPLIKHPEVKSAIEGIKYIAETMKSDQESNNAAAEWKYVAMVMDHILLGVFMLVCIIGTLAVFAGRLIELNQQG
# UniProt P07510: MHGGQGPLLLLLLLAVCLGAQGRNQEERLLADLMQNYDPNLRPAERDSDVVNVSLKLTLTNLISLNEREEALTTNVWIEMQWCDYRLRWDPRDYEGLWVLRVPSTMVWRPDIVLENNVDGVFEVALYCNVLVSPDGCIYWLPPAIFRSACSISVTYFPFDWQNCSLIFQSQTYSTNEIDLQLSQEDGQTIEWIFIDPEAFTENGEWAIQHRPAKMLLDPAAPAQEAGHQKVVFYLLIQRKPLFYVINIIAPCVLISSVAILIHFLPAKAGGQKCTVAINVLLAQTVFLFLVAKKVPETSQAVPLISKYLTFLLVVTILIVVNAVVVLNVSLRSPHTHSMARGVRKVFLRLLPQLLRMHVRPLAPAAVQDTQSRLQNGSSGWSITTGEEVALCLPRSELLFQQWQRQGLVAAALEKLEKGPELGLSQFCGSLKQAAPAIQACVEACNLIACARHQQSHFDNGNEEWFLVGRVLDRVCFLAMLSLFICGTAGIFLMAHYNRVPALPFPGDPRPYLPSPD
# UniProt Q07001: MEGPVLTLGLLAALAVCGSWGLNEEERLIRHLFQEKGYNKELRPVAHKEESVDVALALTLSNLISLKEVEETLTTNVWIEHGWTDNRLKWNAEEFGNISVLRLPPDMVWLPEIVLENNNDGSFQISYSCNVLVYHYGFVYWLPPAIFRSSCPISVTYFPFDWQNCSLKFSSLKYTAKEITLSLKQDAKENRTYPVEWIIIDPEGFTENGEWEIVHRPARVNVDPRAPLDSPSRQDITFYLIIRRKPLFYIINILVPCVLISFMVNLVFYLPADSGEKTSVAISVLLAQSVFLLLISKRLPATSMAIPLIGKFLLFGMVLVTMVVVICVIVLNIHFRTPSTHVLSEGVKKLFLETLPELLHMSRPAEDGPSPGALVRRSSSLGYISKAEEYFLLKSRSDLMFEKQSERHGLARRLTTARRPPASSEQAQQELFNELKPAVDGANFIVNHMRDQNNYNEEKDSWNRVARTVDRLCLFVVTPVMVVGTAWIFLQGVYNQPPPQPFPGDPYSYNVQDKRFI
# UniProt P21917, with tags, fused parts or gaps DEL265-296: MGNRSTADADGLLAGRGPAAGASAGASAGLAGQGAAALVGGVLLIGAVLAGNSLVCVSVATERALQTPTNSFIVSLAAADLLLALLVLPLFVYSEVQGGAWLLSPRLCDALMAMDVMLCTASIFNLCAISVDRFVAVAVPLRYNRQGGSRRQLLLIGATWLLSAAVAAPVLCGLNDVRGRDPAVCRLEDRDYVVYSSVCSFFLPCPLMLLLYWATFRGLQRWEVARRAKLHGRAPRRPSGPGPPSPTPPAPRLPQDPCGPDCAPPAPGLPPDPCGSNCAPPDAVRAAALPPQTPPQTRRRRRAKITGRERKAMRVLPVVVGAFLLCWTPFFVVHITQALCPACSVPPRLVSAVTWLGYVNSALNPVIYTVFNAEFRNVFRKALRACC
# UniProt P0DMS8, whole entry, looked up: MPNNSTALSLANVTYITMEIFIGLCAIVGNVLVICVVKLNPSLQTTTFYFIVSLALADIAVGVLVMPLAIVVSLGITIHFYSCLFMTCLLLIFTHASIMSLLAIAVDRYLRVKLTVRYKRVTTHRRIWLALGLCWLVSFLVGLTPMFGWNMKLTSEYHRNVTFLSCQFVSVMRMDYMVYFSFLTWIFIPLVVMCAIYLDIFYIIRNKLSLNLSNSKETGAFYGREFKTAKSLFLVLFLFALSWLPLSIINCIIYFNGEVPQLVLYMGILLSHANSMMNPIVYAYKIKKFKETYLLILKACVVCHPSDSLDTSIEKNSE
# Assays:
# [1] = Binding in brain homogenate, equilibrium dialysis; conditions: fraction unbound
# [2] = tested on: 68 off-target GPCRs, ion channels and transporters; assay: Lead Profiling Screen (Eurofins Panlabs), radioligand displacement, whole panel; conditions: 10 μM
# human M4 (hM4) = human M4 (hM4) (Homo sapiens, UniProt P08173); assay: Calcium mobilization assay, hM4/Gqi5-CHO cells, EC20 acetylcholine
# [3] = tested on: amphetamine-induced increases in CBV; assay: Pharmacologic MRI (phMRI), cerebral blood volume
# [4] = target: Serotonin (5-Hydroxytryptamine) 5-HT2B (Homo sapiens, UniProt P41595); assay: Lead Profiling Screen
# [5] = tested on: Calcium Channel L-Type, Benzothiazepine; assay: Lead Profiling Screen
# [6] = tested on: Glutamate, NMDA, Phencyclidine; assay: Lead Profiling Screen
# Neuropeptide Y Y2 = Neuropeptide Y Y2 (Homo sapiens, UniProt P49146); assay: Lead Profiling Screen
# Muscarinic M1 = Muscarinic M1 (Homo sapiens, UniProt P11229); assay: Lead Profiling Screen
# Tachykinin NK1 = Tachykinin NK1 (Homo sapiens, UniProt P25103); assay: Lead Profiling Screen
# Adrenergic α1D = Adrenergic α1D (Homo sapiens, UniProt P25100); assay: Lead Profiling Screen
# Adrenergic β1 = Adrenergic β1 (Homo sapiens, UniProt P08588); assay: Lead Profiling Screen
# [7] = target: Transporter, Norepinephrine (NET) (Homo sapiens, UniProt P23975); assay: Lead Profiling Screen
# Estrogen ERα = Estrogen ERα (Homo sapiens, UniProt P03372); assay: Lead Profiling Screen
# Opiate μ (OP3, MOP) = Opiate μ (OP3, MOP) (Homo sapiens, UniProt P35372); assay: Lead Profiling Screen
# [8] = target: Nicotinic Acetylcholine α1, Bungarotoxin (Homo sapiens, UniProt P02708+P07510+Q07001); assay: Lead Profiling Screen
# Purinergic P2Y = assay: Lead Profiling Screen
# Dopamine D4.2 = Dopamine D4.2 (Homo sapiens, UniProt P21917, DEL265-296); assay: Lead Profiling Screen
# Adenosine A3 = Adenosine A3 (Homo sapiens, UniProt P0DMS8); assay: Lead Profiling Screen
# Adrenergic α2A = Adrenergic α2A (Homo sapiens, UniProt P08913); assay: Lead Profiling Screen
# Glutamate, NMDA, Glycine = Glutamate, NMDA, Glycine (Rattus norvegicus, UniProt P35439); assay: Lead Profiling Screen
# [9] = Intrinsic clearance in liver microsomes (substrate depletion)
# [10] = Rat IV plasma:brain level (PBL) cassette; conditions: SD rat, 0.2 mg/kg IV, 0.25 h
# In vivo IV/PO PK = conditions: for In vivo plasma CLtotal: Table S16
# [11] = Binding in plasma, equilibrium dialysis; conditions: fraction unbound
# [12] = Fraction of CYP-mediated metabolism (fm,CYP), hepatocytes ± ABT; conditions: for fraction of CYP-mediated metabolism: 0.3 µM
# CYP3A4 = assay: CYP induction, gene expression (mRNA) in cryopreserved human hepatocytes
# [13] = predicted from microsomal CLint
structure (smiles),measurement,setting,value
Cc1nnc2sc3c(NCc4ccc(C(C)(C)O)cc4)ncnc3c2c1C,"rat fu,brain",[1],0.015
same,inhibition across all off-targets screened,[2],≤ 50%
same,species differences in M4 activity,human M4 (hM4); across species,< 4 fold
same,%AChMax,human M4 (hM4); normalized to 100 μM acetylcholine,91 % AChMax
same,"CBV response, compound alone",[3]; 10 mg/kg po alone,no significant CBV responses
same,effect on amphetamine-evoked increases in CBV,"[3]; 1 or 10 mg/kg p.o., 30 min pretreatment, amphetamine 1 mg/kg s.c.",dose-dependently attenuated amphetamine-evoked increases in CBV
same,% inh at 10 μM,[4],-6%
same,% inh at 10 μM,[5],19%
same,% inh at 10 μM,[6],-12%
same,% inh at 10 μM,Neuropeptide Y Y2,5%
same,% inh at 10 μM,Muscarinic M1,2%
same,% inh at 10 μM,Tachykinin NK1,-5%
same,% inh at 10 μM,Adrenergic α1D,-4%
same,% inh at 10 μM,Adrenergic β1,12%
same,% inh at 10 μM,[7],36%
same,% inh at 10 μM,Estrogen ERα,5%
same,% inh at 10 μM,"Opiate μ (OP3, MOP)",4%
same,% inh at 10 μM,[8],-2%
same,% inh at 10 μM,Purinergic P2Y,0%
same,% inh at 10 μM,Dopamine D4.2,13%
same,% inh at 10 μM,Adenosine A3,17%
same,% inh at 10 μM,Adrenergic α2A,-0%
same,% inh at 10 μM,"Glutamate, NMDA, Glycine",2%
same,"CLint, human",[9]; microsomes,17 mL/min/kg
same,"CLint, rat",[9]; microsomes,89 mL/min/kg
same,"CLhep, human",[9]; [13],9 mL/min/kg
same,"CLhep, rat",[9]; [13],39 mL/min/kg
same,"Kp,brain:plasma",[10],0.55
same,"Kp,uu,brain:plasma",[10],0.41
same,CLp,In vivo IV/PO PK; dog IV 1 mg/kg,5.0 mL/min/kg
same,MRT,In vivo IV/PO PK; dog IV 1 mg/kg,5.05 h
same,Vss,In vivo IV/PO PK; dog IV 1 mg/kg,1.4 L/kg
same,t1/2,In vivo IV/PO PK; dog IV 1 mg/kg,4.17 h
same,% F,In vivo IV/PO PK; dog PO 3 mg/kg,54%
same,AUC0–∞,In vivo IV/PO PK; dog PO 3 mg/kg,5920 ng·h/mL
same,Cmax,In vivo IV/PO PK; dog PO 3 mg/kg,766 ng/mL
same,Tmax,In vivo IV/PO PK; dog PO 3 mg/kg,2.0 h
same,CLp,In vivo IV/PO PK; minipig IV 2 mg/kg,7.7 mL/min/kg
same,MRT,In vivo IV/PO PK; minipig IV 2 mg/kg,4.9 h
same,Vss,In vivo IV/PO PK; minipig IV 2 mg/kg,2.2 L/kg
same,t1/2,In vivo IV/PO PK; minipig IV 2 mg/kg,5.50 h
same,% F,In vivo IV/PO PK; minipig PO 5 mg/kg,50%
same,AUC0–∞,In vivo IV/PO PK; minipig PO 5 mg/kg,8000 ng·h/mL
same,Cmax,In vivo IV/PO PK; minipig PO 5 mg/kg,600 ng/mL
same,Tmax,In vivo IV/PO PK; minipig PO 5 mg/kg,1.2 h
same,In vivo plasma CLtotal,In vivo IV/PO PK; minipig,7.67 mL/min/kg
same,CLp,In vivo IV/PO PK; monkey IV 1 mg/kg,5.0 mL/min/kg
same,MRT,In vivo IV/PO PK; monkey IV 1 mg/kg,3.16 h
same,Vss,In vivo IV/PO PK; monkey IV 1 mg/kg,0.9 L/kg
same,t1/2,In vivo IV/PO PK; monkey IV 1 mg/kg,4.54 h
same,AUC0–∞,In vivo IV/PO PK; monkey PO 3 mg/kg,4696 ng·h/mL
same,Cmax,In vivo IV/PO PK; monkey PO 3 mg/kg,960 ng/mL
same,Tmax,In vivo IV/PO PK; monkey PO 3 mg/kg,2.0 h
same,In vivo plasma CLtotal,In vivo IV/PO PK; monkey,5.33 mL/min/kg
same,CLp,In vivo IV/PO PK; rat IV 1 mg/kg,4.7 mL/min/kg
same,MRT,In vivo IV/PO PK; rat IV 1 mg/kg,2.65 h
same,Vss,In vivo IV/PO PK; rat IV 1 mg/kg,0.7 L/kg
same,t1/2,In vivo IV/PO PK; rat IV 1 mg/kg,2.63 h
same,AUC0–∞,In vivo IV/PO PK; rat PO 3 mg/kg,"14,801 h·ng/mL"
same,Cmax,In vivo IV/PO PK; rat PO 3 mg/kg,1695 ng/mL
same,Tmax,In vivo IV/PO PK; rat PO 3 mg/kg,1.5 h
same,% F,In vivo IV/PO PK; rat PO 30 mg/kg,89%
same,AUC0–∞,In vivo IV/PO PK; rat PO 30 mg/kg,"101,444 h·ng/mL"
same,Cmax,In vivo IV/PO PK; rat PO 30 mg/kg,8985 ng/mL
same,Tmax,In vivo IV/PO PK; rat PO 30 mg/kg,3.0 h
same,% F,"In vivo IV/PO PK; rat PO, dose not named (conclusion)",≥ 89%
same,In vivo plasma CLtotal,In vivo IV/PO PK; rat,4.33 mL/min/kg
same,"human fu,plasma",[11],0.007
same,"rat fu,plasma",[11],0.02
same,non-CYP-mediated metabolism,[12]; NHP hepatocytes,56%
same,fraction of CYP-mediated metabolism,[12]; dog hepatocytes,87%
same,non-CYP-mediated metabolism,[12]; human hepatocytes,51%
same,fraction of CYP-mediated metabolism,"[12]; human hepatocytes, ± ABT",49%
same,fraction of CYP-mediated metabolism,"[12]; monkey hepatocytes, ± ABT",44%
same,fraction of CYP-mediated metabolism,[12]; rat hepatocytes,93%
same,CYP3A4 gene expression,"CYP3A4; 0.1 µM, donor 1",0.88 ± 0.03 fold of DMSO control
same,CYP3A4 gene expression,"CYP3A4; 0.1 µM, donor 2",1.28 ± 0.10 fold of DMSO control
same,CYP3A4 gene expression,"CYP3A4; 0.1 µM, donor 3",2.27 ± 0.50 fold of DMSO control
same,CYP3A4 gene expression,"CYP3A4; 0.3 µM, donor 1",1.53 ± 0.80 fold of DMSO control
same,CYP3A4 gene expression,"CYP3A4; 0.3 µM, donor 2",1.32 ± 0.14 fold of DMSO control
same,CYP3A4 gene expression,"CYP3A4; 0.3 µM, donor 3",1.73 ± 0.32 fold of DMSO control
same,CYP3A4 gene expression,"CYP3A4; 1 µM, donor 1",1.40 ± 0.75 fold of DMSO control
same,CYP3A4 gene expression,"CYP3A4; 1 µM, donor 2",1.46 ± 0.05 fold of DMSO control
same,CYP3A4 gene expression,"CYP3A4; 1 µM, donor 3",1.75 ± 0.17 fold of DMSO control
same,CYP3A4 gene expression,"CYP3A4; 3 µM, donor 1",1.93 ± 0.50 fold of DMSO control
same,CYP3A4 gene expression,"CYP3A4; 3 µM, donor 2",1.41 ± 0.13 fold of DMSO control
same,CYP3A4 gene expression,"CYP3A4; 3 µM, donor 3",3.16 ± 0.26 fold of DMSO control
same,CYP3A4 gene expression,"CYP3A4; 10 µM, donor 1",3.13 ± 0.31 fold of DMSO control
same,CYP3A4 gene expression,"CYP3A4; 10 µM, donor 2",1.17 ± 0.05 fold of DMSO control
same,CYP3A4 gene expression,"CYP3A4; 10 µM, donor 3",2.41 ± 0.05 fold of DMSO control
